# scFv variants of Ab-14 (heavy chain) against a SARS-CoV-2 spike peptide

Antigen: PDVDLGDISGINAS, a 14-residue peptide of the SARS-CoV-2 spike HR2 region.

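Phage display of a naive human antibody library on the peptide gave the parent. These sequences belong to a second round, designed from the earlier measurements on random variants of the parent. Their group label is 14H_GP_Gen (GP: Gaussian process model; Gen: genetic algorithm; a sequence that several methods proposed may carry one label only). In AlphaSeq, yeast of one mating type display the scFv and yeast of the other type display the target. Mating (16 h, 30 °C) was followed by selection of diploids and sequencing of their barcodes. Read counts were normalised to the haploid input and turned into Kd by a linear fit to BCL2-family pairs of known affinity, for each replicate. There are six technical replicates.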

The variants keep the light chain, the linker and the frameworks of Ab-14 (scFv order VH, a 15-residue (Gly4Ser)3 linker, VL).
VH: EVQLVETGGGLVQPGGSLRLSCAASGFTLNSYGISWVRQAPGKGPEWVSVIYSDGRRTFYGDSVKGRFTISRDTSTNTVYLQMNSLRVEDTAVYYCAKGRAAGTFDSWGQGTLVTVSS
VL: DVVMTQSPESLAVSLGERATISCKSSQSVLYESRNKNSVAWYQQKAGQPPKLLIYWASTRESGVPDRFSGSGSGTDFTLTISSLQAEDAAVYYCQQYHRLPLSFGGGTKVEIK

Variants are written as CDR1, CDR2 and CDR3 of the heavy chain (limits as in the source). Parent: GFTLNSYGIS, VIYSDGRRTFYGDSVK, GRAAGTFDS.
The read-out is the apparent dissociation constant on a log10 scale (nM): the lower, the stronger.
"ND" means that the variant was in the library but no mating with the target was seen in that replicate; the authors take this as a sign of poor binding, and no number exists.
The authors averaged sequences with at least three values out of six and counted those with two or fewer as poor binders.

CDR-H1 | CDR-H2 | CDR-H3 | replicates, log10 nM | control signals
GFDLNSYGIS | VIYSDGRRTFYGDSVK | GKEAGTFDN | -0.02 / -0.23 / 0.57 / -0.13 / -0.31 / -0.06 | 0 of 18
GFELNSYGIS | VIYSDGRRTFYADTVK | GRTAGTFDS | 0.01 / 0.66 / 0.08 / 0.24 / -0.11 / -0.15 | 1 of 18 (1.96)
GFNLNSYGIS | VIYSDGRRTFYGDSVK | GHVAGTFDS | 0.46 / 0.37 / 0.86 / 0.73 / 0.69 / 0.64 | 1 of 18 (2.19)
GFELNEYGIS | VIYSDGRRTFYGDSVK | GRAAGTFDT | 0.01 / 0.36 / 0.02 / 0.22 / 0.53 / 0.45 | 0 of 18
GFGLNEYGIS | VIYSDGRRTFYQDSVK | GKAAGTFDS | ND / ND / ND / ND / ND / ND | 0 of 18
GFKLNSYGIS | VIYSDGRRTFYGDSVK | GKEAGTFDS | ND / ND / ND / ND / ND / ND | 0 of 18
GFDLNSYGIS | VIYSDGRRTFYGDSVK | GCTAGTFDS | 0.51 / 0.76 / 0.27 / 0.32 / 1.29 / 0.54 | 0 of 18
GFNLNSYGIS | VIYSDGRRTFYADMVK | GRTAGTFDS | ND / 0.95 / ND / ND / ND / 1.16 | 0 of 18
GFTLNSYGIS | VIYADGRRTFYGDSVK | GWAAGTFDK | ND / 2.18 / ND / 1.04 / 1.56 / 1.18 | 0 of 18
GFNLNSYGIS | VIYSDGRRTFYGDRVK | GRIAGTFDS | ND / ND / 0.81 / ND / ND / ND | 0 of 18
GFDLNSYGIS | VIYSDGRRTFYADDVK | GKAAGTFDS | 0.17 / 0.12 / 0.04 / -0.08 / 0.30 / 0.08 | 0 of 18
GFQLNDYGIS | VIYSDGRRTFYHDSVK | GRTAGTFDS | ND / 0.67 / 0.90 / 0.59 / 0.16 / ND | 0 of 18
GFDLNSYGIS | VIYSDGRRTFYVDSVK | GKAAGTFDV | 0.91 / 0.46 / 0.50 / 0.91 / 0.49 / 0.57 | 0 of 18
GFELNEYGIS | VIYSDGRRTFYGDSVK | GRCAGTFDS | ND / ND / ND / 0.32 / 1.47 / ND | 0 of 18
KFSLNSYGIS | VIYSDGRRTFYSDSVK | GQTAGTFDS | 0.71 / 1.52 / 0.40 / 0.73 / 0.37 / 0.97 | 0 of 18
GFSLNEYGIS | VIYSDGRRTFYGDSVK | GRQAGTFDN | 0.17 / 0.24 / 0.66 / -0.02 / -0.14 / 0.24 | 0 of 18
KFSLNEYGIS | VIYSDGRRTFYGDSVK | GKTAGTFDS | 0.51 / 0.42 / -0.53 / -0.28 / 0.15 / -0.06 | 0 of 18
GFKLNSYGIS | VIYSDGRRTFYGDSVK | GREAGTFDS | ND / ND / ND / ND / ND / ND | 0 of 18
GFSLNEYGIS | VIYSDGRRTFYGDSVK | GRQAGTFIS | ND / ND / ND / ND / ND / ND | 0 of 18
GFDLNSYGIS | VIYSDGRRTFYVDDVK | GRQAGTFDS | 0.53 / 0.09 / 0.44 / 1.02 / -0.33 / 1.42 | 0 of 18
GFELNSYGIS | VIYSDGRRTFYIDSVK | GKAAGTFDT | 0.01 / ND / 0.36 / ND / 0.48 / 0.95 | 0 of 18
GFNLNSYGIS | VIYSDGRRTFYGDNVK | GRNAGTFDS | 2.01 / 1.44 / 1.92 / 1.42 / 2.32 / 1.81 | 1 of 18 (2.97)
QFDLNSYGIS | VIYSDGRRTFYGDSVK | GRTAGTFDS | 0.72 / 3.12 / ND / ND / 1.57 / ND | 0 of 18
GFQLNEYGIS | VIYSDGRRTFYGDSVK | GRTAGTFIS | 1.27 / ND / ND / ND / ND / ND | 0 of 18
GFTLNEYGIS | VIYSDGRRTFYGDDVK | GRTAGTFDT | -0.10 / -0.64 / -0.11 / -0.69 / 0.21 / -0.06 | 0 of 18
GFELNSYGIS | VIYSDGRRTFYIDSVK | GHAAGTFDT | 2.03 / 1.12 / 1.01 / 0.81 / 0.36 / 0.50 | 0 of 18
GFQLNEYGIS | VIYSDGRRTFYGDSVK | GRQAGTFDT | 1.14 / 0.25 / 0.23 / 0.21 / -0.04 / -0.32 | 0 of 18
SFNLNSYGIS | VIYSDGRRTFYADSVK | GRTAGTFDS | 0.07 / 0.01 / -0.10 / -0.18 / -0.13 / -0.14 | 1 of 18 (2.97)
GFELNEYGIS | VIYSDGRRTFYGDSVK | GKIAGTFDS | -0.23 / -0.41 / -0.01 / -0.38 / -0.35 / -0.26 | 0 of 18
YFDLNSYGIS | VIYSDGRRTFYGDSVK | GQTAGTFDS | 0.16 / -0.19 / 0.22 / -0.05 / 0.19 / 0.24 | 1 of 18 (3.11)
GFNLNSYGIS | VIYSDGRRTFYADSVK | GRQAGTFDA | 0.61 / 0.30 / 0.15 / 0.01 / 0.37 / 1.16 | 0 of 18
GFKLNSYGIS | VIYSDGRRTFYIDSVK | GNAAGTFDS | 2.87 / 1.48 / 0.90 / 0.65 / 1.47 / 1.29 | 0 of 18
GFTLNSYGIS | VIYSDGRRTFYIDSVK | GKAAGTFDT | 1.52 / 1.47 / 2.49 / 2.88 / 1.78 / 2.03 | 1 of 18 (1.97)
GFDLNSYGIS | VIYSDGRRTFYSDQVK | GKTAGTFDS | -0.12 / -0.83 / -0.47 / -0.73 / -0.53 / -0.76 | 1 of 18 (2.59)
GFELNSYGIS | VIYSDGRRTFYGDSVK | GQTAGTFDA | -0.10 / 0.40 / 0.10 / 0.18 / ND / 0.59 | 0 of 18
GFNLNSYGIS | VIYSDGRRTFYADHVK | GNAAGTFDS | ND / 2.80 / 1.00 / 1.71 / 0.44 / 1.19 | 0 of 18
GFDLNSYGIS | VIYSDGRRTFYQDSVK | GREAGTFDD | 0.34 / 0.25 / 0.37 / 0.58 / 0.31 / 0.19 | 1 of 18 (1.02)
GFTLNEYGIS | VIYSDGRRTFYGDQVK | GRTAGTFDS | 1.86 / ND / 2.10 / 2.43 / ND / ND | 0 of 18
GFNLNSYGIS | VIYSDGRRTFYGDRVK | GRNAGTFDS | -0.37 / 0.99 / ND / 0.21 / 0.04 / 0.10 | 0 of 18
GFSLNEYGIS | VIYSDGRRTFYGNSVK | GRTAGTFDS | -0.25 / -0.26 / 0.17 / -0.14 / -0.20 / -0.26 | 0 of 18
GFTLNSYGIS | VIYSDGRRTFYGDQVK | GREAGTFDT | 1.60 / 0.72 / 0.63 / 0.34 / 0.76 / 0.89 | 0 of 18
GFDLNSYGIS | VIYSDGRRTFYGDSVK | GRQAGTFDV | 0.42 / 0.02 / 0.22 / 0.59 / 0.76 / 0.85 | 0 of 18
GFDLNSYGIS | VIYSDGRRTFYGDPVK | GRTAGTFDD | 1.12 / 1.01 / ND / 1.38 / 1.69 / 2.16 | 0 of 18
GFWLNEYGIS | VIYSDGRRTFYGDSVK | GQAAGTFDR | ND / ND / ND / ND / ND / 2.19 | 0 of 18
GFELNMYGIS | VIYSDGRRTFYGDSVK | GQAAGTFDS | 1.31 / 1.67 / 1.27 / 1.17 / 1.02 / 1.19 | 1 of 18 (2.82)
GFSLNSYGIS | VIYSDGRRTFYSDSVK | GEAAGTFDN | 0.66 / -0.01 / 0.20 / 0.11 / -0.02 / -0.07 | 1 of 18 (3.55)
KFDLNSYGIS | VIYSDGRRTFYADSVK | GKTAGTFDS | 0.23 / -0.29 / -0.31 / -0.42 / 0.13 / 0.04 | 0 of 18
GFDLNSYGIS | VIYSDGRRTFYVDQVK | GQTAGTFDS | ND / ND / ND / ND / ND / ND | 0 of 18
SFDLNSYGIS | VIYSDGRRTFYIDSVK | GNAAGTFDS | 0.70 / 0.54 / 0.47 / 0.69 / 0.66 / 1.05 | 1 of 18 (2.95)
GFDLNSYGIS | VIYSDGRRTFYGDNVK | GRQAGTFDS | -0.06 / -0.23 / 0.02 / -0.39 / 0.14 / 0.36 | 1 of 18 (1.78)
GFELNSYGIS | VIYSDGRRTFYIDSVK | GRTAGTFDT | 0.98 / 0.49 / 0.95 / 0.63 / 0.58 / 0.85 | 0 of 18
GFSLNEYGIS | VIYSDGRRTFYGDSVK | GQTAGTFDA | 0.42 / -0.85 / 0.22 / -0.83 / -0.04 / -0.57 | 0 of 18

9 of these entries, quoted again:

CDR-H1	CDR-H2	CDR-H3	replicates, log10 nM	control signals
SFDLNSYGIS	VIYSDGRRTFYIDSVK	GNAAGTFDS	0.70 / 0.54 / 0.47 / 0.69 / 0.66 / 1.05	1 of 18 (2.95)
KFSLNEYGIS	VIYSDGRRTFYGDSVK	GKTAGTFDS	0.51 / 0.42 / -0.53 / -0.28 / 0.15 / -0.06	0 of 18
GFDLNSYGIS	VIYSDGRRTFYGDNVK	GRQAGTFDS	-0.06 / -0.23 / 0.02 / -0.39 / 0.14 / 0.36	1 of 18 (1.78)
GFELNSYGIS	VIYSDGRRTFYIDSVK	GRTAGTFDT	0.98 / 0.49 / 0.95 / 0.63 / 0.58 / 0.85	0 of 18
GFNLNSYGIS	VIYSDGRRTFYADMVK	GRTAGTFDS	ND / 0.95 / ND / ND / ND / 1.16	0 of 18
GFDLNSYGIS	VIYSDGRRTFYSDQVK	GKTAGTFDS	-0.12 / -0.83 / -0.47 / -0.73 / -0.53 / -0.76	1 of 18 (2.59)
GFSLNEYGIS	VIYSDGRRTFYGDSVK	GRQAGTFDN	0.17 / 0.24 / 0.66 / -0.02 / -0.14 / 0.24	0 of 18
GFDLNSYGIS	VIYSDGRRTFYVDQVK	GQTAGTFDS	ND / ND / ND / ND / ND / ND	0 of 18
GFQLNDYGIS	VIYSDGRRTFYHDSVK	GRTAGTFDS	ND / 0.67 / 0.90 / 0.59 / 0.16 / ND	0 of 18

Values of this round are not directly comparable with the first-round values of the same sequences.
As a blank, each scFv also met three strains without target: over all heavy chain designs, 1% of these pairings were detected, typically at 2.08 and seldom below 0.84. Also given: how often the same scFv was detected with the empty control strains, with their mean in brackets.

From the AlphaSeq antibody data of Li et al. 2023 (doi:10.1038/s41467-023-39022-2), copy in the FLAb collection.